Apparent affinities of Ab-14 variants for a coronavirus HR2 peptide

Values reported by Engelhart et al. 2022, doi:10.1038/s41597-022-01779-4 (FLAb copy).

The target is the same throughout: PDVDLGDISGINAS, from the HR2 region of SARS-CoV-2 spike.

The variants keep the light chain, the linker and the frameworks of Ab-14 (scFv order VH, the linker GGGGSGGGGSGGGGS, VL).
VH: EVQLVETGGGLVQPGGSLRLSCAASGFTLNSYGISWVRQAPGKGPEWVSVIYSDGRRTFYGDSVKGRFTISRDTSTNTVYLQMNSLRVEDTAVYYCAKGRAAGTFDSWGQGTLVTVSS
VL: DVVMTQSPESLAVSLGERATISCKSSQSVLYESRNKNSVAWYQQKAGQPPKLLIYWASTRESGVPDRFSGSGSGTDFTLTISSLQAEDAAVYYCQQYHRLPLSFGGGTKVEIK

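Phage display of a naive human antibody library on the peptide gave the parent. Library AAYL49 holds single substitutions and randomly drawn double and triple substitutions in the CDRs. In AlphaSeq, yeast of one mating type display the scFv and yeast of the other type display the target. The frequency of each diploid, read from paired DNA barcodes, reflects how well the two displayed proteins bind. Read counts were normalised to the haploid input and turned into Kd by a linear fit to BCL2-family pairs of known affinity, for each replicate. Each pool was mated in three replicate cultures.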

Changes read parent residue, position, new residue, counted from the first residue of the VH shown.
All variants listed here change I51 of the VH, counted from its first residue.
The read-out is the apparent dissociation constant on a log10 scale (nM): the lower, the stronger.
Averages over replicates are reported, and they cover detected replicates only.
"nd" marks a missing value. The strain was present, yet no cells mated with the target were sequenced in that replicate, which points to weak or no binding.
Parent in this assay: reference entry 0.65, copy in this library 4.11 (one replicate of three).
Empty control strains, which show no peptide, gave a signal in 15% of pairings with library AAYL49; the median was 4.06 and 95% of these signals were weaker than 2.83. No background was subtracted.

The variant I51M/D54K gave nd, nd, nd. The variant G33H/I51N/K65M showed nd, nd, nd. The variant I51Y/R57H/S107G showed nd, nd, nd. With N30D/I51H/T104N the result was nd, nd, nd. With G26Q/I51W/K65Y the result was nd, nd, 4.10. The variant I51S/F105G/D106G showed nd, nd, 2.81.

With G26L/I51D/Y60C the result was nd, 2.75, nd. For I51L/R56D/F59P, the assay gave nd, nd, nd. The variant I51D/T104P/D106Y showed nd, nd, nd. For I51L/Y52I/S107H, the assay gave nd, 3.42, nd. The variant L29T/I51P/S63W showed nd, nd, nd. The variant I51W/D54I/Y60V showed nd, nd, nd.

The variant I51Y/A102Y/F105Y showed nd, nd, 4.85. For L29Y/I51W, the assay gave nd, nd, 3.69. For I51T/D62E/R100Y, the assay gave nd, nd, nd. With I51N/G99L the result was 4.69, nd, nd. With F27A/I51F/G61R the result was nd, nd, nd. With T28P/I51M/V64D the result was nd, nd, nd.

With I51M/D106S the result was 1.33, 1.55, 1.99 (mean 1.62). The variant I51W/R56N gave nd, nd, nd. The variant I51W/G55T/G61A showed nd, nd, nd. The variant I51D/G103C/T104E gave nd, nd, nd. For I51K/S53Y/K65F, the assay gave 4.15, nd, nd. For I51W/R57P/F59D, the assay gave nd, nd, nd.

With G33N/I51Y/F105A the result was nd, nd, 4.55. With N30R/I51C the result was nd, nd, 5.44. For G26S/I51T, the assay gave nd, nd, 2.41. For S31N/I51C/R57K, the assay gave nd, nd, nd. The variant V50C/I51F/D106N gave 5.38, 4.21, 4.54 (mean 4.71). The variant I51K/A102V/G103P showed nd, 3.99, nd.

The variant G33V/I34A/I51W showed nd, nd, nd. The variant I51M gave nd, nd, nd. The variant I51K/R100Y/T104S gave nd, nd, nd. The variant S31W/I51P/S53F gave nd, 3.85, 3.67 (mean 3.76). For I51G/G55Q/D106L, the assay gave nd, nd, nd. For S35L/I51F/K65E, the assay gave nd, nd, nd.

The variant I51L/A102Y/T104I showed nd, 4.26, nd. For I51Y/G61E/T104E, the assay gave 4.22, nd, nd. The variant V50N/I51Y/T58H showed nd, nd, nd. The variant I51H/S53N/R100Q gave nd, nd, nd. The variant I51L/D54Y/G99A gave nd, nd, nd. The variant I51R/D54M/F105H showed nd, nd, nd.

The variant I51F/G55D/K65V gave nd, nd, nd. With N30R/I51H/T104N the result was 4.88, 2.92, nd (mean 3.90). The variant N30L/I51Y/K65S showed nd, nd, nd.